## Yeast mating assay 2: variants of the scFv Ab-91

The target is the same throughout: PDVDLGDISGINAS, from the HR2 region of SARS-CoV-2 spike.

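In library AAYL51, one, two or three CDR residues were substituted; doubles and triples were drawn at random. In AlphaSeq, yeast of one mating type display the scFv and yeast of the other type display the target. The frequency of each diploid, read from paired DNA barcodes, reflects how well the two displayed proteins bind. Scores were corrected for input abundance and mapped to Kd with protein pairs of known affinity run in the same pool. There are three technical replicates.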

Parent: Ab-91, a human scFv built as VL, a (GGGGS)3 linker, VH. Only the CDRs of the heavy chain vary.
VL: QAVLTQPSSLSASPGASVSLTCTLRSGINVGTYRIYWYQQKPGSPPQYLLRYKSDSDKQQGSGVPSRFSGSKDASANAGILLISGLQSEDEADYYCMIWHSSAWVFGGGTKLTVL
VH: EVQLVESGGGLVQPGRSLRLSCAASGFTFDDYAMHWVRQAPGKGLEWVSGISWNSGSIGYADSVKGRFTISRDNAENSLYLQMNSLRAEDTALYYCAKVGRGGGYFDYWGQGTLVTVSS

Substitutions are numbered in sequence along the VH above, starting at 1 (not Kabat).
Scale: log10 of Kd in nM, estimated from mating counts; low values are strong binders.
Replicates are averaged; those with no signal do not enter the mean.
"no signal" means that the variant was in the library but no mating with the target was seen in any replicate; the authors take this as a sign of poor binding, and no number exists.
Empty control strains, which show no peptide, gave a signal in 21% of pairings with library AAYL51; the median was 4.54 and 95% of these signals were weaker than 3.26. No background was subtracted.

With N54W G56L D62F the result was 4.47 (1 of 3 replicates).
With A33N V64R F106D the result was no signal (0 of 3 replicates).
With G104F F106D D107C the result was 5.57 (2 of 3 replicates).
With Y32C A33R D62L the result was no signal (0 of 3 replicates).
With G56P D107L the result was 4.01 (1 of 3 replicates).
With S57D G104K Y105D the result was 0.33 (3 of 3 replicates).
With W53T S57L G102P the result was 5.01 (2 of 3 replicates).
With I51F D62R the result was 3.84 (3 of 3 replicates).
With G26P V64C G103I the result was 4.26 (2 of 3 replicates).
With S55G R101L G103H the result was 4.18 (1 of 3 replicates).
With V99S D107L the result was no signal (0 of 3 replicates).
With G102L G103K the result was 5.89 (1 of 3 replicates).
With F27S T28D G50K the result was no signal (0 of 3 replicates).
With S57W G103V D107S the result was 5.29 (3 of 3 replicates).
With H35Q W53R G59M the result was 4.51 (1 of 3 replicates).
With S55W G100I Y105N the result was no signal (0 of 3 replicates).
With I51R G100V Y105M the result was 4.89 (2 of 3 replicates).
With D30P S52L G102W the result was 4.19 (1 of 3 replicates).
With T28H H35I the result was 5.21 (2 of 3 replicates).
With I58P V64P Y105E the result was 4.25 (1 of 3 replicates).
With I51Q N54T F106D the result was no signal (0 of 3 replicates).
With M34V H35T G102L the result was no signal (0 of 3 replicates).
With A33C D107S the result was 4.02 (1 of 3 replicates).
With F27G I58F Y108C the result was 1.42 (3 of 3 replicates).
With A33H K65C the result was 4.99 (3 of 3 replicates).
With F27E F29E S57C the result was 4.23 (2 of 3 replicates).
With F27S A33E I51A the result was no signal (0 of 3 replicates).
With Y60E S63A the result was 2.95 (1 of 3 replicates).
With I51Q R101N F106L the result was no signal (0 of 3 replicates).
With M34L H35V G103Q the result was 4.58 (2 of 3 replicates).
With G50W I51Y V64L the result was 5.20 (1 of 3 replicates).
With F27M S52F G100D the result was no signal (0 of 3 replicates).
With I58Q G100I R101Y the result was 4.90 (2 of 3 replicates).
With V64N V99P G102C the result was 3.25 (1 of 3 replicates).
With Y60S A61I Y108F the result was 4.75 (2 of 3 replicates).
With T28D H35F D62V the result was no signal (0 of 3 replicates).
With S63I R101K Y105W the result was 4.40 (3 of 3 replicates).
With F27Y A33E G103N the result was no signal (0 of 3 replicates).
With N54E S55A G102Y the result was 4.06 (2 of 3 replicates).
With Y32H S52C R101F the result was no signal (0 of 3 replicates).
With F29D I51G Y108E the result was 4.10 (1 of 3 replicates).
With T28D Y60A V99H the result was 4.21 (1 of 3 replicates).
With D30C N54E G102V the result was 4.48 (1 of 3 replicates).
With M34G V99Q R101G the result was no signal (0 of 3 replicates).
With G102H F106Q the result was 1.43 (3 of 3 replicates).
With F29V S55Y V99S the result was 4.37 (2 of 3 replicates).
With G26W G59S D62M the result was no signal (0 of 3 replicates).
With F27M Y60M K65E the result was no signal (0 of 3 replicates).

The opening 8 entries, copied out:

For N54W G56L D62F, the assay gave 4.47 (1 of 3 replicates).
For A33N V64R F106D, the assay gave no signal (0 of 3 replicates).
For G104F F106D D107C, the assay gave 5.57 (2 of 3 replicates).
For Y32C A33R D62L, the assay gave no signal (0 of 3 replicates).
For G56P D107L, the assay gave 4.01 (1 of 3 replicates).
For S57D G104K Y105D, the assay gave 0.33 (3 of 3 replicates).
For W53T S57L G102P, the assay gave 5.01 (2 of 3 replicates).
For I51F D62R, the assay gave 3.84 (3 of 3 replicates).

In this assay the parent's reference entry averaged 1.86; its copy inside this library read 0.88.

Reference: Engelhart et al. 2022, doi:10.1038/s41597-022-01779-4. File: FLAb, binding data.